The test concerns the target human α2A-AR (Homo sapiens, UniProt P08913). Kind of test: Radioligand competition binding, [3H]-RX821002, HEK-293 membranes. In general terms: In a radioligand displacement assay an active substance lowers the binding of a labelled ligand.

Amino acid sequences for entries named in this document (tags omitted).
UniProt P08913, whole entry: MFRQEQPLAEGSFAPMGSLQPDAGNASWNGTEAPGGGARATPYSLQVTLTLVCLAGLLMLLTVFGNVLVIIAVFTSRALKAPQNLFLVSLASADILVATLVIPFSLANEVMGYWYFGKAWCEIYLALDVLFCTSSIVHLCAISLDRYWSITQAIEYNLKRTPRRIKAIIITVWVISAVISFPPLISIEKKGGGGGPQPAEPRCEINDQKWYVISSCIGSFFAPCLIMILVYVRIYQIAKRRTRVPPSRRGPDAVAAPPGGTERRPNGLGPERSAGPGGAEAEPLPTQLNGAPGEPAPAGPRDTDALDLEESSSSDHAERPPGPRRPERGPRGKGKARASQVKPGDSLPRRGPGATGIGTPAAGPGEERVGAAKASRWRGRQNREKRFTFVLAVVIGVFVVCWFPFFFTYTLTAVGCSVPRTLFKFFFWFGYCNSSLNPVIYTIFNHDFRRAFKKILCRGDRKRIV

Each structure is given as a SMILES string.

Compound `CC(C)C[C@H]1C(=O)N2CCC[C@H]2[C@]2(O)O[C@](NC(=O)[C@@H]3C=C4c5cccc6[nH]c(Br)c(c56)C[C@H]4N(C)C3)(C(C)C)C(=O)N12` [Bromocriptine] came in with a Ki of 199 nM.

As usually defined, the Ki is a measure of affinity in units of concentration, obtained from inhibition or displacement. A low value points to higher affinity.

The values above are taken from paper PMC9379584 (iScience, 2022).
